Legend:
[1] = tested on: gel-filtered platelets (thrombin-induced aggregation); test: In vitro inhibition of thrombin-induced gel-filtered platelet aggregation assay; settings: read-out: GFP Aggr. IC50; Table 1; platelet aggregation stimulated by thrombin, gel-filtered human platelets
Experimental: In Vitro Inhibition Of Thrombin-induced Gel-filtered Platelet Aggregation Assay
The percentage of platelet aggregation is calculated as an increase in light transmission of compound-treated platelet concentrate vs. control-treated platelet concentrate. Human blood is obtained from drug free, normal donors in tubes containing 0.13M sodium citrate. Platelet rich plasma (PRP) is collected by centrifugation of whole blood at 200×g for 10 min at 25° C. The PRP (5 mL) is gel filtered through Sepharose 2B (bed volume 50 mL), and the platelet count is adjusted to 2×10^7 platelets per sample. The following constituents are added to a siliconized cuvette: concentrated platelet filtrate and Tyrode's buffer (0.14M NaCl, 0.0027M KCl, 0.012M NaHCO3, 0.76 mM Na2HPO4, 0.0055M glucose, 2 mg/mL BSA and 5.0 mM HEPES @ pH 7.4) in an amount equal to 350 μL, 50 μL of 20 mM calcium and 50 μL of the test compound. Aggregation is monitored in a BIODATA aggregometer for the 3 min following the addition of agonist (thrombin 50 μL of 1 unit/mL).

Protein sequences, listed by entry. Tags and fused reporters are not part of them. Residues count along the entry.
UniProt P25116, 22-425 limits assumed: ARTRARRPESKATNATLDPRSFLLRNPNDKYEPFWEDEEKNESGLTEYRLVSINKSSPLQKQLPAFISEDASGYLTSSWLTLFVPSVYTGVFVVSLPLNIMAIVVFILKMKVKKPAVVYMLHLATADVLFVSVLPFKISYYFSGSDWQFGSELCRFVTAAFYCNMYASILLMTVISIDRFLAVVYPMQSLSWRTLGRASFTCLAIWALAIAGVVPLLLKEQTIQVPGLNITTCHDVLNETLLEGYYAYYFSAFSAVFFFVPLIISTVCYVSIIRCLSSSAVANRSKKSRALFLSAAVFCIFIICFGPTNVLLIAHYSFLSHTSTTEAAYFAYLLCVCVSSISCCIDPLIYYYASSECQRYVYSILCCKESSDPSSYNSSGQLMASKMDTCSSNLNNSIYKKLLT

[2] = target: thrombin receptor (PAR-1) (Homo sapiens, UniProt P25116); test: In vitro thrombin receptor binding assay (CHRF membranes, tritiated 721-40); settings: read-out: Recptr Bdg. IC50, Table 1
Experimental: In Vitro Thrombin Receptor Binding Assay
CHRF membranes (Jones, Biochim. Biophys. Acta 1992, 1136, 272) are thawed from −70° C., centrifuged at maximum speed for 5 min, washed twice with binding buffer (50 mM HEPES containing 5 mM MgCl2 and 0.1% BSA), and re-suspended in binding buffer ([…]). 100 μL of membranes are added to the 24-Wallac plates and delivered to the Tomtech apparatus. In a typical experiment, 6 μL of samples (from a 125 μg/mL intermediary plate, 20% DMSO) and 44 μL buffer are delivered to the plates (final conc. of compounds is 3.7 μg/mL, 0.6% DMSO). Similarly, 6 μL 20% DMSO and 44 μL buffer are delivered to both column 1 (NSB) and column 12 (TB). 10 μL Ser-pFPhe-Har-Leu-Har-Lys-Tyr-NH2 (721-40; 500 μM in deionized water) is added to column 1. 50 μL tritiated 721-40 (specific activity 46 Ci/mmol) is added to all the wells. The plates are mixed well for 20 seconds, incubated for 30 min, and then harvested with 10 mM HEPES/138 mM NaCl using the Skatron harvester. The filters (GF/C Brandel FPXLR 296) are presoaked 3 h in 0.5% polyethylenimine in HEPES/0.1M N-acetylglucosamine) are set in saran wrap and dried for 3 min in the microwave, and placed in sample bags (Wallac 1450-432). 4.5 mL scintillation fluid (Wallac, Betaplate Scint 1205-440) is added. The bags are sealed, placed in filter cassettes (Wallac 1450-104), and analyzed on the microbeta counter.

## NCCCCN(Cc1ccncc1)C(=O)[C@H](Cc1ccc(F)c(F)c1)NC(=O)Nc1ccc2c(CN3CCCC3)cn(Cc3c(Cl)cccc3Cl)c2c1
[1]
  IC50: 510 nM
[2]
  IC50: 100 nM

## NCCCN(CC1CCCCC1)C(=O)[C@H](Cc1ccc(F)c(F)c1)NC(=O)Nc1ccc2c(CN3CCCC3)cn(Cc3c(Cl)cccc3Cl)c2c1
[1]
  IC50: 1000 nM
[2]
  IC50: 8800 nM

## NCCCCNC(=O)[C@H](Cc1ccc(F)c(F)c1)NC(=O)Nc1ccc2c(CN3CCCC3)cn(Cc3c(Cl)cccc3Cl)c2c1
[1]
  IC50: 1700 nM
[2]
  IC50: 100 nM

## NCCCN(Cc1ccncc1)C(=O)[C@H](Cc1ccc(F)c(F)c1)NC(=O)Nc1ccc2c(CN3CCCC3)cn(Cc3c(Cl)cccc3Cl)c2c1
[1]
  IC50: 400 nM
[2]
  IC50: 29000 nM

## NCCCNC(=O)[C@H](Cc1ccc(F)c(F)c1)NC(=O)Nc1ccc2c(CN3CCCC3)nn(Cc3c(Cl)cccc3Cl)c2c1
[1]
  IC50: 260 nM
[2]
  IC50: 100 nM

## NCCNC(=O)[C@H](Cc1ccc(F)c(F)c1)NC(=O)Nc1ccc2c(CN3CCCC3)cn(Cc3c(Cl)cccc3Cl)c2c1
[1]
  IC50: 990 nM
[2]
  IC50: 70 nM

— patent US6365617B1, “Indole and indazole urea-peptoids as thrombin receptor antagonists” (Ortho-McNeil Pharmaceutical, Inc., priority 1999, dated 2002)
